SMILES strings stand for the structures. The entries are a selection whose mix differs from that of the whole data set. Activity calls are given as the source filed them.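 The calls were made as follows: active = signal rise of 40% or more at 20 µM, treated as a fluorescence artifact; inactive = the rest.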

The test can be described thus: Rh110 fluorescence interference by putative Apaf-1 inhibitors, confirmation, artefact control for Apaf-1 inhibitor project, biochemical, 20 µM (AID 504615). The settings on record: quenched caspase reaction, at 20 µM, hits give high values.
On to `CC1=C2N=C(C=C3N=C(C(C)=C4[N-][C@@](C)([C@@H]5N=C1[C@](C)(CCC(=O)NC[C@@H](C)OP(=O)([O-])O[C@H]1[C@@H](O)[C@@H](n6cnc7cc(C)c(C)cc76)O[C@@H]1CO)[C@H]5CC(N)=O)[C@@](C)(CC(N)=O)[C@@H]4CCC(N)=O)[C@@](C)(CC(N)=O)[C@@H]3CCC(N)=O)C(C)(C)[C@@H]2CCC(N)=O.[C-]#N.[Co+3]`, for which the activation (fluorescence interference) was inactive: -4.36%.
Then `O=[N+]([O-])c1cc([N+](=O)[O-])c(Nc2ccccn2)c([N+](=O)[O-])c1`, with inactive: 3.29%.
